# Reference: PubChem BioAssay AID651560 (Sanford-Burnham Center for Chemical Genomics, 2012)
# The chains behind the UniProt entries cited, without tags or fusion partners.
# UniProt P24666, whole entry: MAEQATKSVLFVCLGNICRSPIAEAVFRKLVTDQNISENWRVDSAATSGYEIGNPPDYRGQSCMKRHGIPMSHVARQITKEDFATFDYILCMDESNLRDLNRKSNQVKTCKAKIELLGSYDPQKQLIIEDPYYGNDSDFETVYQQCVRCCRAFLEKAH
# The entries are a selection whose mix differs from that of the whole data set. The source made the active and inactive calls.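 How the source made its calls: active means compounds that cut the enzyme signal by at least half of the control window in the single-dose screen; inactive means the rest.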
# Target: Low molecular weight phosphotyrosine protein phosphatase (Homo sapiens) (UniProt P24666)
# Assay: LMPTP phosphatase inhibitors, primary screen, biochemical, fluorescence intensity, uHTS (AID 651560);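 further: plate controls were DMSO wells with enzyme plus substrate for no effect and substrate without enzyme for full effect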
# Details: recombinant LMPTP-A, OMFP fluorogenic substrate, at 20 µM, stronger effect = higher value
# Outline: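 Buffer or medium: Bis-Tris pH 6.0, DTT, detergent; Assay system: LMPTP-A enzyme; Quantity: 0.625 nM enzyme; Detection: endpoint fluorescence intensity; Times: 50 min dark incubation at room temperature; Controls: substrate-only low control, DMSO enzyme-plus-substrate high control; Doses: single 20 µM dose; Read-out: percent inhibition versus substrate-only and uninhibited controls; Reagent: 400 µM OMFP.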
row,SMILES,inhibition
1,Cc1ccc(Nc2c([N+](=O)[O-])cc([N+](=O)[O-])cc2[N+](=O)[O-])cc1,inactive: 1.12%
2,Cc1cccc(C)c1OP(C)(=O)Nc1ccc(SC(F)(F)F)cc1 (configuration not stated),inactive: 1.06%
3,CP(=O)(Nc1ccc(SC(F)(F)F)cc1)Oc1ccc(Cl)cc1 (configuration not stated),inactive: 4.93%
4,CP(=O)(Oc1ccccc1)OC(c1ccccc1)C(F)(F)F (configuration not stated),inactive: -1.09%
5,CP(=O)(NC(=O)Nc1ccccc1)Oc1ccccc1 (configuration not stated),inactive: -2.69%
6,CCc1ccc(OP(C)(=O)N2CCN(c3ccc([N+](=O)[O-])cc3)CC2)cc1 (configuration not stated),inactive: 3.6%
7,Cc1cc(C)cc(OP(C)(=O)Nc2ccc(SC(F)(F)F)cc2)c1 (configuration not stated),inactive: 1.64%
8,CP(=S)(Nn1cnnc1)Oc1ccccc1 (configuration not stated),inactive: -0.365%
9,COc1ccccc1OP(C)(=O)Nc1ccccc1 (configuration not stated),inactive: -0.785%
10,CP(=O)(Nc1ccccc1Br)Oc1ccccc1 (configuration not stated),inactive: 0.0432%
11,CCOC(=O)c1ccc(NP(C)(=O)Oc2ccccc2)cc1 (configuration not stated),inactive: -0.506%
12,COc1ccccc1OP(C)(=O)Nc1ccc(C)cc1 (configuration not stated),inactive: -0.202%
13,Cc1ccc(NP(C)(=O)Oc2ccccc2)c(C)c1 (configuration not stated),inactive: -1.1%
14,COc1ccccc1OP(C)(=O)Nc1cc(Cl)ccc1C (configuration not stated),inactive: 1.73%
15,COc1ccc(OP(C)(=O)Nc2cccc(F)c2)cc1 (configuration not stated),inactive: -1.25%
16,Cc1cc(C)cc(OP(C)(N)=O)c1 (configuration not stated),inactive: -0.609%
17,O=[N+]([O-])c1cc([N+](=O)[O-])c(Nc2cccnc2)c([N+](=O)[O-])c1,inactive: -1.11%
18,CC(C)(C)c1ccc(OP(C)(=O)Nc2ccc(SC(F)(F)F)cc2)cc1 (configuration not stated),inactive: 2.2%
19,Cc1cccc(C)c1OP(C)(N)=O (configuration not stated),inactive: -0.189%
20,O=[N+]([O-])c1ccc2c(c1)C=Nc1ccccc1O2,inactive: 1.06%
21,COc1ccccc1-c1ccccn1.O=[N+]([O-])c1cc([N+](=O)[O-])c(O)c([N+](=O)[O-])c1,inactive: -0.182%

row,SMILES,inhibition
1,CCN(CC)CCCOC(=O)C(O)(c1ccccc1)c1ccccc1,inactive: -1.4%
2,Cc1cc(C)cc(OP(C)(=O)Nc2ccccn2)c1 (configuration not stated),inactive: -0.429%
3,CP(=O)(Nc1cccc(Br)c1)Oc1ccccc1 (configuration not stated),inactive: 0.164%
4,Cc1ccc(C)c(NP(C)(=O)Oc2ccccc2)c1 (configuration not stated),inactive: 0.164%
5,COc1ccccc1OP(C)(=O)Nc1cccc(Br)c1 (configuration not stated),inactive: -0.833%
6,Cc1cc(C)cc(OP(C)(=O)Nc2ccc(C)cc2C)c1 (configuration not stated),inactive: -0.329%
7,CCOC(=O)c1ccc(NP(C)(=O)Oc2cc(C)cc(C)c2)cc1 (configuration not stated),inactive: -0.208%
8,CC1=NCCc2c1[nH]c1ccccc21.O=[N+]([O-])c1cc([N+](=O)[O-])c(O)c([N+](=O)[O-])c1,inactive: 0.341%
9,O=C(O)c1cccc(Nc2c([N+](=O)[O-])cc([N+](=O)[O-])cc2[N+](=O)[O-])c1,inactive: -0.769%
10,COc1ccccc1OP(C)(=O)Nc1c(C)cccc1C (configuration not stated),inactive: -2.78%
11,CN1CCCCC1COC(=O)C1(O)c2ccccc2CCc2ccccc21 (configuration not stated),inactive: -0.327%
12,CCCOc1ccc(NP(C)(=O)Oc2ccc(Cl)cc2)cc1 (configuration not stated),inactive: -0.509%
13,CP(=O)(Nc1ccc(SC(F)(F)F)cc1)Oc1ccccc1 (configuration not stated),inactive: 0.794%
14,COc1ccc(-c2ccccn2)cc1.O=[N+]([O-])c1cc([N+](=O)[O-])c(O)c([N+](=O)[O-])c1,inactive: -1.8%
15,CC1=C2N=C(C=C3N=C(C(C)=C4[N-][C@@](C)([C@@H]5N=C1[C@](C)(CCC(=O)NC[C@@H](C)OP(=O)([O-])O[C@H]1[C@@H](O)[C@@H](n6cnc7cc(C)c(C)cc76)O[C@@H]1CO)[C@H]5CC(N)=O)[C@@](C)(CC(N)=O)[C@@H]4CCC(N)=O)[C@@](C)(CC(N)=O)[C@@H]3CCC(N)=O)C(C)(C)[C@@H]2CCC(N)=O.[C-]#N.[Co+3],inactive: 17.8%
16,O=[N+]([O-])c1cc([N+](=O)[O-])c(Nc2nnnn2CCO)c([N+](=O)[O-])c1,inactive: 0.848%
17,CCOC(=O)C(CC)C1=NC(C)(C)Cc2ccccc21.O=[N+]([O-])c1cc([N+](=O)[O-])c(O)c([N+](=O)[O-])c1 (configuration not stated),inactive: 1.23%
18,O=[N+]([O-])c1cc([N+](=O)[O-])c(-c2cnn(-c3ccccc3)c2)c([N+](=O)[O-])c1,inactive: 1.85%
19,Cc1nc2ccc3ccccc3c2s1.O=[N+]([O-])c1cc([N+](=O)[O-])c(O)c([N+](=O)[O-])c1,inactive: 1.3%
20,O=[N+]([O-])c1cc([N+](=O)[O-])c(-n2nnc3ccccc32)c([N+](=O)[O-])c1,inactive: -0.455%
21,CN(Cc1cccnc1)C(=O)COc1ccc(Cl)c(Cl)c1.O=[N+]([O-])c1cc([N+](=O)[O-])c(O)c([N+](=O)[O-])c1,inactive: -2.4%
